One block for each binder: values may come before it.
How the values were obtained:
[1] = target: T1, Duffy Antigen Receptor for Chemokines (DARC) (human), Q16570; experiment: DARC binding (printed as affinity constant)
T1 chain: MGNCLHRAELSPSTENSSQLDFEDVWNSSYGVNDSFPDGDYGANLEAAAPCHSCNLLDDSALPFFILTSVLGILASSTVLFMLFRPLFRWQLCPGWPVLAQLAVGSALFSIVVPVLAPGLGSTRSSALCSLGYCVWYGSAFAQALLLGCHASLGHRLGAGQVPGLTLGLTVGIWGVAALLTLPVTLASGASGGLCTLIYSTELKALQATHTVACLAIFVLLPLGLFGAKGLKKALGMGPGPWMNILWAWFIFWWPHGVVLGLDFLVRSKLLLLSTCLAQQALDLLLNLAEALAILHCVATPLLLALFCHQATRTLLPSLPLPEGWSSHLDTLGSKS

[2] = target: T1, Duffy Antigen Receptor for Chemokines …; experiment: estimated ka for red blood cells divided by inhibitory ED50
[3] = target: T1, Duffy Antigen Receptor for Chemokines …; experiment: ratio of the constant for DARC to the inhibitory ED50
[4] = target: T1, Duffy Antigen Receptor for Chemokines …; experiment: estimated ka for red blood cells divided by average inhibitory ED50

- Kd [1]: 15 µM
- Duffy selectivity [2]: 22.3
B1: KQK (peptide)
chain: KQK
modifications: not checked

- Kd [1]: 2 µM
- DARC selectivity [3]: 10
- Duffy selectivity [4]: 24.8
B2: WVQ (peptide)
chain: WVQ
modifications: not checked

Reference: US7238711
